Laboratory results taken from patent publication US9133224B2, “Macrocyclic kinase inhibitors” (OSI Pharmaceuticals, LLC, priority 2010, dated 2015).
Like-named read-outs stand apart in the source and are kept apart here.

By UniProt entry, the sequences of proteins in these tests, tags left out.
UniProt Q05397, whole entry: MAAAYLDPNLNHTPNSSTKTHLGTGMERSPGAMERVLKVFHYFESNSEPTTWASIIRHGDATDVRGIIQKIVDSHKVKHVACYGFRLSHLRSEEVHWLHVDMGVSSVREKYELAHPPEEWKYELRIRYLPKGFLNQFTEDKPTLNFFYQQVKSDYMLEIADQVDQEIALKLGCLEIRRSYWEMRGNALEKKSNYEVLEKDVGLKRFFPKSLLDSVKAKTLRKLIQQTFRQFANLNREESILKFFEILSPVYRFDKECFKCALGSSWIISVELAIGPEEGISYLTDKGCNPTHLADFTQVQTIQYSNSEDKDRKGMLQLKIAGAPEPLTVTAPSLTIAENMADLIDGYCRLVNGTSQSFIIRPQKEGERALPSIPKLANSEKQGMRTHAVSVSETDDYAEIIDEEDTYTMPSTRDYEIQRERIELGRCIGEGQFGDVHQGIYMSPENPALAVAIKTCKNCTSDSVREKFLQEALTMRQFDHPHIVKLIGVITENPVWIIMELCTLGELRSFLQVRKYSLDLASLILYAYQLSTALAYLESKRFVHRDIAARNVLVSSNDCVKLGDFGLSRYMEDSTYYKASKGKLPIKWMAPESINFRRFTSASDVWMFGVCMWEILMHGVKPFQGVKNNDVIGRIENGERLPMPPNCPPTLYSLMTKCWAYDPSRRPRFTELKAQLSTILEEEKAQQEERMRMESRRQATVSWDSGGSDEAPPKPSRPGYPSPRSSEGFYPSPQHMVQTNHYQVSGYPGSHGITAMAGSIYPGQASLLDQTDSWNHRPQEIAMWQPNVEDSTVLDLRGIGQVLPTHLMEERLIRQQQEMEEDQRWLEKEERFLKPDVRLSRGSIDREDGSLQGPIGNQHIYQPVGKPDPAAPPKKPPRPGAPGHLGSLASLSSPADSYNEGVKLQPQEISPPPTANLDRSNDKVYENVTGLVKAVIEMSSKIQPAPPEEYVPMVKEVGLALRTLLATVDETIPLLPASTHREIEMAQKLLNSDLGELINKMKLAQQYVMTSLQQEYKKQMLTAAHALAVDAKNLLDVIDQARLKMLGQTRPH

Tests used:
FAK = FAK (Homo sapiens, UniProt Q05397); experiment: Cell-based capture ELISA for inhibition of FAK autophosphorylation [pY397] in U87MG cells
[1] = target: GST-tagged full-length FAK enzyme (PTK2) (Homo sapiens, UniProt Q05397); experiment: Biochemical Omnia Assay (FAK); conditions: read-out: FAK Activity Biochemical OMNIA, [ATP] = 50uM, mean IC50

Measured: IC50

CCOP1(=O)Cc2ccc(c(OC)c2)Nc2ncc(C(F)(F)F)c(n2)Nc2ccc(nc2C(=O)NC)-c2cnn(c2)CC(C)(C)CO1 (single isomer, unassigned)
< 400 nM: FAK; read-out: FAK Activity Mechanistic (U87MG) HP, 50% (v/v) human plasma, mean IC50 | FAK; read-out: FAK Activity Mechanistic (U87MG) MP, 50% (v/v) mouse plasma, mean IC50 | FAK; read-out: FAK Activity Mechanistic (U87MG) NP, no plasma present, mean IC50 | [1]
